# From PubChem BioAssay AID687 (PCMD, 2007)
# Protein sequences, listed by entry. Tags and fused reporters are not part of them. Residues count along the entry.
# UniProt P03951, 19-387 limits assumed: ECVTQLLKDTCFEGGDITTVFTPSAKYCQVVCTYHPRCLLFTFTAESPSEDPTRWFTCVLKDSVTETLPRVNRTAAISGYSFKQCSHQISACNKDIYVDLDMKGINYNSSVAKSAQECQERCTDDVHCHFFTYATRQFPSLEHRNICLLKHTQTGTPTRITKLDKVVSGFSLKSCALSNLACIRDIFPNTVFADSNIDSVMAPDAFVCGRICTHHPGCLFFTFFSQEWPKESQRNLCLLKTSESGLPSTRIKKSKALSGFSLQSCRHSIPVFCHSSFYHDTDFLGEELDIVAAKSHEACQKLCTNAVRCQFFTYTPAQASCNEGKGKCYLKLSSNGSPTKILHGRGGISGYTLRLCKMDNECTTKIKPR
# UniProt P03951, 388-625 limits assumed: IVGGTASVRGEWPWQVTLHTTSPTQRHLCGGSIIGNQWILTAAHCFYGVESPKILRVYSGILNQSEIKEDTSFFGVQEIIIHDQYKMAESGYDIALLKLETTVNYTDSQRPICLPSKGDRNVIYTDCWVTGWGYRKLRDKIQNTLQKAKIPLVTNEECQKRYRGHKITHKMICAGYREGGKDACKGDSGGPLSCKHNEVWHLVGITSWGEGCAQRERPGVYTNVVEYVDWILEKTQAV
# The list shows a part of the results, in another mix than the full data. Calls of active or inactive are those of the source.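 How the source made its calls: active means inhibition above 40% in the primary screen; inactive means the rest.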
# Molecular target: Coagulation factor XI (Homo sapiens) (UniProt P03951)
# Experiment: human FXIa protease inhibitors, primary screen, biochemical, single compound per well (AID 687);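 further: 0% = enzyme without compound and 100% = blank wells lacking enzyme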
# Conditions: purified human FXIa, fluorogenic AMC substrate cleavage; at 10 µM; active compounds read high
row,Structure (SMILES),inhibition
1,CCc1ccc(OP(C)(=O)O)cc1,inactive: 5.92%
2,COc1ccccc1OP(C)(=O)Nc1ccc(C)cc1C (stereo not given),inactive: 0.41%
3,Cc1c(NP(C)(=O)Oc2ccc(C(C)C)cc2)c(=O)n(-c2ccccc2)n1C (stereo not given),inactive: -7.25%
4,CN(C)CCOC(=O)C(O)(c1ccccc1)C1CCCC1 (stereo not given),inactive: -1.46%
5,COc1ccc(OP(C)(=O)Nc2ccccn2)cc1 (stereo not given),inactive: -2.13%
6,CP(=O)(Nc1ccc(Cl)cc1)Oc1ccc(F)cc1 (stereo not given),inactive: -13.4%
7,CC(C)(C)c1ccc(OP(C)(=O)O)cc1,inactive: 0.38%
8,CP(=O)(OC12CC3CC(CC(C3)C1)C2)OC12CC3CC(CC(C3)C1)C2,inactive: -3.83%
9,CP(=O)(Nc1ccccc1)Oc1ccc(F)cc1 (stereo not given),inactive: 5.13%
10,CCN(CC)CCCOC(=O)C(O)(c1ccccc1)C1CCCCC1 (stereo not given),inactive: -0.39%
11,Cc1cc(C)cc(OP(C)(=O)Nc2ccccn2)c1 (stereo not given),inactive: 6.24%
12,Cc1cc(C)cc(OP(C)(=O)Nc2ccc(C)cc2C)c1 (stereo not given),inactive: -1.61%
13,COc1ccccc1OP(C)(=O)Nc1c(C)cccc1C (stereo not given),inactive: 6.71%
14,CP(=O)(Nc1ccccn1)Oc1ccc(Cl)cc1 (stereo not given),inactive: -5.35%
15,COc1ccc(OP(C)(=O)Nc2cccc(F)c2)cc1 (stereo not given),inactive: -2.95%
